Yeast mating assay B: variants of the scFv Ab-14

Antigen: PDVDLGDISGINAS, a 14-residue peptide of the SARS-CoV-2 spike HR2 region.

Each scFv is VH, a 15-residue (Gly4Ser)3 linker, VL, as in the parent Ab-14, and differs from it in the CDRs of the light chain only.
VH: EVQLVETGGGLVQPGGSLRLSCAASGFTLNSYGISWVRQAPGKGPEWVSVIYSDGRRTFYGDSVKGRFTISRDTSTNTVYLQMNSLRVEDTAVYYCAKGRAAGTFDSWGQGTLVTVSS
VL: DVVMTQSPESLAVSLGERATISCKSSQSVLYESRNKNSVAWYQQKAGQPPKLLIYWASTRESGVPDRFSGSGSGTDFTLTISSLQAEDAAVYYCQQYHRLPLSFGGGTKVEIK

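The starting antibody came from a phage panning campaign against this peptide. The variants were designed computationally from a first round of random CDR variants and then made and measured. Their group label is 14L_En_HC (En: ensemble of fine-tuned language models; HC: hill climbing; a sequence that several methods proposed may carry one label only). The assay is AlphaSeq: two haploid yeast populations carry antibody and antigen on their surface. After mating in shaken culture at 30 °C for 16 h, diploids were selected and their barcode pairs sequenced. Scores were corrected for input abundance and mapped to Kd with protein pairs of known affinity run in the same pool. Each pool was mated in six replicate cultures.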

Each variant's VL is given in full.
The read-out is the apparent dissociation constant on a log10 scale (nM): the lower, the stronger.
Where no diploid with the target was found in that replicate, the entry reads "n.d.": below detection, most likely a poor binder, though not proof of it.
A sequence measured in both rounds can read differently, since the two assays cover different ranges.

VL	log10 Kd (nM) by replicate	control signals
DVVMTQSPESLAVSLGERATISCKLSVSWLFESIEHNSVAWYQQKAGQPPKLLIYERSTRERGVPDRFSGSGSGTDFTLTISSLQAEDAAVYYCQDYNRLPLSFGGGTKVEIK	0.57 0.71 0.86 0.73 0.67 1.01	1/18 (1.58)
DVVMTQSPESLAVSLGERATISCILSQMMLTAGNKHSSVAWYQQKAGQPPKLLIYQANNREDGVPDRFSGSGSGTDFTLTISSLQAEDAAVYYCQQYHRLPLSFGGGTKVEIK	1.40 0.98 1.43 1.27 1.44 1.79	1/18 (2.08)
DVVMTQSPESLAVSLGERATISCKIYAATMLESHDKNSIAWYQQKAGQPPKLLIYDLSNRGNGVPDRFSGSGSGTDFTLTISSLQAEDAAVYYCQQYHRLPLSFGGGTKVEIK	n.d. n.d. n.d. n.d. n.d. n.d.	0/18
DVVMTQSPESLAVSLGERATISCTISQSAQQESHNKNNVAWYQQKAGQPPKLLIYDLSVRGSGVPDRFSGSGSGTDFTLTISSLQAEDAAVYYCQQYHRLPLSFGGGTKVEIK	0.45 0.77 0.52 0.92 -0.05 0.65	0/18
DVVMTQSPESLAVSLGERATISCTLGDVTRMESNKKNSIAWYQQKAGQPPKLLIYDMNNRADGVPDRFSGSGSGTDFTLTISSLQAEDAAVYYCQQYHRLPLSFGGGTKVEIK	-0.34 -0.31 -0.33 -0.59 -0.53 -0.44	0/18
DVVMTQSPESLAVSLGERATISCMISQMFEGLSTSKNPVAWYQQKAGQPPKLLIYQASTREEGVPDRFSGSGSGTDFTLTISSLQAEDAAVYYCQQYHRLPLSFGGGTKVEIK	0.69 -0.11 0.52 -0.08 0.33 0.37	1/18 (0.88)
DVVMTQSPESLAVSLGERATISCKLGAMTAIESRNLNSVAWYQQKAGQPPKLLIYQMDTRESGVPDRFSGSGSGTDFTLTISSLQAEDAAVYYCQQYHRLPLSFGGGTKVEIK	0.13 -0.01 -0.02 -0.10 0.24 0.25	1/18 (3.60)
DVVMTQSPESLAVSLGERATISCMFSQLFMYGSRNYNSVAWYQQKAGQPPKLLIYQASTREAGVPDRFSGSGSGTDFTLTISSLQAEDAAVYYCQQYHRLPLIFGGGTKVEIK	1.06 1.17 0.68 0.78 0.35 0.93	1/18 (1.24)
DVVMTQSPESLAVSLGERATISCIISGLMLMESRNKNSVAWYQQKAGQPPKLLIYNAETREYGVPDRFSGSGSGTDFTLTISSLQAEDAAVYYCQHYDRLPLSFGGGTKVEIK	n.d. n.d. n.d. n.d. n.d. n.d.	1/18 (2.63)
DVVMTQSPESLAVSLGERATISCKISQMVTYESTWWNAIAWYQQKAGQPPKLLIYQTSEREEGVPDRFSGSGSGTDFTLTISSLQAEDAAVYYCQQYHRLPLSFGGGTKVEIK	1.20 0.91 0.92 0.76 0.97 1.17	0/18
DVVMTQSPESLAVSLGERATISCKVSQSVMMLSRNKNSVAWYQQKAGQPPKLLIYDNSTSGSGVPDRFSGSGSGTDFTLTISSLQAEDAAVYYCQQYHRLPLSFGGGTKVEIK	0.80 0.82 1.16 0.72 1.24 1.18	1/18 (3.13)
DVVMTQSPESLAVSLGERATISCKLYQVTGYESYVRNSVAWYQQKAGQPPKLLIYQMSTRAEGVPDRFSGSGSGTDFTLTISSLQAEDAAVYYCQDYHRLPLSFGGGTKVEIK	1.53 0.40 -0.22 0.38 0.27 1.28	0/18
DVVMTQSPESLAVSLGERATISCKFSQGVLYESRTKNSVAWYQQKAGQPPKLLIYNASTRESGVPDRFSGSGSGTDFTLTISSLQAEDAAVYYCQQYHRLPLSFGGGTKVEIK	-0.41 -0.49 -0.47 -0.58 -0.32 -0.31	2/18 (2.68)
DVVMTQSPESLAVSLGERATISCMISDLTAYGSRNKNSVAWYQQKAGQPPKLLIYDLSTRGSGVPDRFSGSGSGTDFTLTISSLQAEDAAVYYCQQYHRLPLSFGGGTKVEIK	-0.27 -0.42 -0.24 -0.05 -0.09 -0.20	0/18
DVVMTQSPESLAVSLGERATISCKLSVSWLYESIEKNSVAWYQQKAGQPPKLLIYERSTREDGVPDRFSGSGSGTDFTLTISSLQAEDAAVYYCQDYNRLPLSFGGGTKVEIK	0.65 0.52 0.65 0.24 0.43 0.63	0/18
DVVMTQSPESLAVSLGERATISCKLSQVTHSESRNKNSIAWYQQKAGQPPKLLIYEMVTRENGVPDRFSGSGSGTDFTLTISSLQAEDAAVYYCQQYDRLPLSFGGGTKVEIK	0.59 1.00 0.78 0.55 0.42 0.90	0/18

As a blank, each scFv also met three strains without target: over all light chain designs, 4% of these pairings were detected, typically at 2.64 and seldom below 1.59. The control count says in how many pairings with the empty strains this scFv gave a signal, with their mean in brackets.
In the paper, a design with two or fewer of six values counts as a poor binder.
The parent sequence was in this pool as ten entries: three were never detected, three once, and four in most replicates, with averages from 0.34 to 2.37.

Values reported by Li et al. 2023, doi:10.1038/s41467-023-39022-2 (FLAb copy).